Here are results for eleven compounds from patent US10034861B2 (priority 2016, dated 2018).

Chains of the proteins cited; added tags and fusions are not shown. Lines headed by an entry give the natural chain unless they say otherwise; changes in a name come on top.
UniProt Q14123, whole entry: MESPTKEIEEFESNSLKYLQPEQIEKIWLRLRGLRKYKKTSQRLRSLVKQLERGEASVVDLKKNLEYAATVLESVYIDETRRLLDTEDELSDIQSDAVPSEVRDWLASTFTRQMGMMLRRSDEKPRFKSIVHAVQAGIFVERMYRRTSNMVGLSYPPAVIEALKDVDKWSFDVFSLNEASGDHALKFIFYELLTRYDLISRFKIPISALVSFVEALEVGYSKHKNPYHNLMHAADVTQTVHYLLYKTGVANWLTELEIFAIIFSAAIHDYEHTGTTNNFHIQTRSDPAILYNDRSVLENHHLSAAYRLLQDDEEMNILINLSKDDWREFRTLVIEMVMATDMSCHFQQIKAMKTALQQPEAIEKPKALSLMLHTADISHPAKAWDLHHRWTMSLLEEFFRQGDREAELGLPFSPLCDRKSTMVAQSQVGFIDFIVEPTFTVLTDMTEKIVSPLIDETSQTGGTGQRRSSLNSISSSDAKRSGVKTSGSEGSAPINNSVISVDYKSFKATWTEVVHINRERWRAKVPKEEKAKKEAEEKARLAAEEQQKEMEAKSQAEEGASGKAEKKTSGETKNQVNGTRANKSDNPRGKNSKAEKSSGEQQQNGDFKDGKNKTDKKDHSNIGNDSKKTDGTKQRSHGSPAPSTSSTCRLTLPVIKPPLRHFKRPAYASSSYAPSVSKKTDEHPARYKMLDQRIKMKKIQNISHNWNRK
UniProt P54750: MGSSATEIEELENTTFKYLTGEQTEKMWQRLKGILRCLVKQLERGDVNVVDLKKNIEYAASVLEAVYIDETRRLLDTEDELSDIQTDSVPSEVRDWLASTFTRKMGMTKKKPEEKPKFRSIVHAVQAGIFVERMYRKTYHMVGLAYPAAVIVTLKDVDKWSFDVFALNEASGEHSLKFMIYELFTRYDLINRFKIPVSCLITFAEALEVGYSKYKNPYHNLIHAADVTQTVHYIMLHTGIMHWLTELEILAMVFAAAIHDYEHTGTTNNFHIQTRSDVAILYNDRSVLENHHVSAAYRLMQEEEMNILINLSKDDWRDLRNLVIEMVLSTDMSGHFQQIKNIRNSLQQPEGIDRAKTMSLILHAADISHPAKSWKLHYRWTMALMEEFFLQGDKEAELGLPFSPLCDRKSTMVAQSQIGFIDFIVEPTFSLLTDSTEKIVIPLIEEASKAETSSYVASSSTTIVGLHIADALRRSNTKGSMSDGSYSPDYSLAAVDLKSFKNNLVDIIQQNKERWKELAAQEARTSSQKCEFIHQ
UniProt Q01064: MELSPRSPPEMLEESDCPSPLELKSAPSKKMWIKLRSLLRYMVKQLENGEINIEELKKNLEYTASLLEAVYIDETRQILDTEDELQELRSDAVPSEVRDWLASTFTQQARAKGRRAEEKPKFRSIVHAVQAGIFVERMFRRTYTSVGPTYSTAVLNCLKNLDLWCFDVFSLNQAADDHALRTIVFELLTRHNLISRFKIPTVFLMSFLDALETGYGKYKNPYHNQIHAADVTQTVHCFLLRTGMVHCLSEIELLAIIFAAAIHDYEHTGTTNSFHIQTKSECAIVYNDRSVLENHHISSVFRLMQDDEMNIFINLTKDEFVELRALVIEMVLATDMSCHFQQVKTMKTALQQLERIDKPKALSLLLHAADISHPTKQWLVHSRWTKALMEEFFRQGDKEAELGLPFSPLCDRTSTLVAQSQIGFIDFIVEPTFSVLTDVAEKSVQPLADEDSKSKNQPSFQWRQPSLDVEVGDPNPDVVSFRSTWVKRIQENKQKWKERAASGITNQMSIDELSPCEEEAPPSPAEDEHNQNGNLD

Structures are written as SMILES. Read-outs that look alike come from different tables or passages of the source.

For orientation: IC50 means the concentration that inhibits the measured activity by half.

In one assay the target is PDE1C (Homo sapiens (Human), UniProt Q14123). Nature of the assay: biochemical. The source says: (§1) Table 1 lists the IC50 value for inhibition of PDE1 by the compounds of the invention. […] PDE1 assays are described in the Experimental Section.
In another assay the target is PDE1A (Homo sapiens (Human), UniProt P54750). As to the kind of experiment: biochemical.
Excerpt: as §1

For the next assay, the target named is PDE1B (Homo sapiens (Human), UniProt Q01064). As to the kind of experiment: PDE1 inhibition assay (PDE1B). The note with it: 15 nM tritium labelled cAMP, 1 hr at room temperature, SPA beads. It is filed as biochemical.
Excerpt: as §1

Where [1] appears, read: 15 nM tritium labelled cAMP, 1 hr at room temperature, SPA beads.

At PDE1C, `CCOc1ncccc1-c1cc(NCc2cnn(C)c2)c2c(cnn2C(C)CC)n1` (single isomer, unassigned) [Example 69, 5-(2-ethoxy-3-pyridyl)-1-[1-methylpropyl]-N-[(1-methylpyrazol-4-yl)methyl]pyrazolo[4,3-b]pyridin-7-amine] displayed an IC50 of 0.04 µM.
`CCOc1ncccc1-c1cc(NCc2cnn(C)c2)c2c(cnn2C(C)CC)n1` (single isomer, unassigned) [Example 70, 5-(2-ethoxy-3-pyridyl)-1-[1-methylpropyl]-N-[(1-methylpyrazol-4-yl)methyl]pyrazolo[4,3-b]pyridin-7-amine] showed an IC50 against PDE1C of 0.36 µM.
On to `CCOc1ncccc1-c1cc(NCc2ncn(C)n2)c2c(n1)c(C)nn2C(C)CC` (single isomer, unassigned) [Example 121, 5-(2-ethoxy-3-pyridyl)-3-methyl-1-[1-methylpropyl]-N-[(1-methyl-1,2,4-triazol-3-yl)methyl]pyrazolo[4,3-b]pyridin-7-amine], for which the IC50 is 0.004 µM at PDE1A and 0.01 µM at PDE1C.
For `CCOc1ncccc1-c1cc(NCc2ncn(C)n2)c2c(n1)c(C)nn2C(C)CC` (single isomer, unassigned) [Example 122, 5-(2-ethoxy-3-pyridyl)-3-methyl-1-[1-methylpropyl]-N-[(1-methyl-1,2,4-triazol-3-yl)methyl]pyrazolo[4,3-b]pyridin-7-amine], the IC50 was determined as 0.0022 µM at PDE1A and 0.0035 µM at PDE1C.
In the case of `CCOc1ncccc1-c1cc(NCc2ccnc(OC)c2)c2c(n1)c(C)nn2C(C)CC` (single isomer, unassigned) [Example 126, 5-(2-ethoxy-3-pyridyl)-N-[(2-methoxy-4-pyridyl)methyl]-3-methyl-1-[1-methylpropyl]pyrazolo[4,3-b]pyridin-7-amine], on PDE1B (PDE1B, IC50 (nM)), the IC50 came to 0.51 nM.
On to `CCOc1ncccc1-c1cc(NCc2nnn(C)n2)c2c(n1)c(C)nn2C(C)CC` (single isomer, unassigned) [Example 127, 5-(2-ethoxy-3-pyridyl)-3-methyl-1-[1-methylpropyl]-N-[(2-methyltetrazol-5-yl)methyl]pyrazolo[4,3-b]pyridin-7-amine], for which the IC50 on PDE1C is 0.0051 µM.
For the compound `CCOc1ncccc1-c1cc(NCc2noc(C)n2)c2c(n1)c(C)nn2C(C)CC` (single isomer, unassigned) [Example 128, 5-(2-ethoxy-3-pyridyl)-3-methyl-N-[(5-methyl-1,2,4-oxadiazol-3-yl)methyl]-1-[1-methylpropyl]pyrazolo[4,3-b]pyridin-7-amine], at PDE1A, the IC50 worked out at 0.0012 µM.
At PDE1B (PDE1B, IC50 (nM)), `CCOc1ncccc1-c1cc(NCc2coc(C)n2)c2c(n1)c(C)nn2C(C)CC` (single isomer, unassigned) [Example 129, 5-(2-ethoxy-3-pyridyl)-3-methyl-N-[(2-methyloxazol-4-yl)methyl]-1-[1-methylpropyl]pyrazolo[4,3-b]pyridin-7-amine] displayed an IC50 of 1.2 nM.
In turn, `CCOc1ncccc1-c1cc(NCc2cnc(C)o2)c2c(n1)c(C)nn2C(C)CC` (single isomer, unassigned) [Example 133, 5-(2-ethoxy-3-pyridyl)-3-methyl-N-[(2-methyloxazol-5-yl)methyl]-1-[1-methylpropyl]pyrazolo[4,3-b]pyridin-7-amine] displayed an IC50 against PDE1C of 0.023 µM.
On to `CCC1COC(=O)N1c1cc(NCc2cnn(C)c2)c2c(n1)c(C)nn2C(C)C` (stereo not drawn) [Example 156, 4-ethyl-3-[1-isopropyl-3-methyl-7-[(1-methylpyrazol-4-yl)methylamino]pyrazolo[4,3-b]pyridin-5-yl]oxazolidin-2-one], for which the IC50 at PDE1B (read-out: PDE1B, IC50) worked out at 31 nM; on PDE1A (setting [1]), 0.031 µM.
On to `Cc1nn(C(C)C)c2c(NCc3cnn(C)c3)cc(-c3cccnc3N(C)C)nc12` [Example 201, 5-[2-(dimethylamino)-3-pyridyl]-1-isopropyl-3-methyl-N-[(1-methylpyrazol-4-yl)methyl]pyrazolo[4,3-b]pyridin-7-amine], for which the IC50 against PDE1A (setting [1]) and against PDE1C (setting [1]) was 2.1 µM each time.
